# Reference: article PMC5298231, “The Malaria Parasite's Lactate Transporter PfFNT Is the Target of Antiplasmodial Compounds Identified in Whole Cell Phenotypic Screens” (PLoS Pathogens, 2017)
# Test system: 3D7 P. falciparum trophozoites
# Assay: Cytosolic pH (pHcyt) measurement in BCECF-loaded saponin-isolated trophozoites
# Settings: not given
row,SMILES,Effect on resting cytosolic pH in glucose-free medium
1,O=C1CC(O)(C(F)(F)C(F)(F)F)Oc2ccccc21 (stereo not drawn) [MMV000972],no change in the resting pH
2,COc1ccc2c(c1)OC(O)(C(F)(F)C(F)(F)F)CC2=O (stereo not drawn) [MMV007839],no change in the resting pH

# Same assay, conditions: 1 μM
row,SMILES,Effect on pHcyt at 1 μM (Comments)
1,Brc1ccc(Nc2nc3ccccc3nc2Nc2ccc(Br)cc2)cc1 [MMV007224],minor (A minor effect on pHcyt corresponds to a change of < 0.15 pH unit)
2,Cc1cccc(-n2ncc3c(O)nc(-n4nc(C)cc4NC(=O)c4cc5ccccc5o4)nc32)c1 [MMV403679],minor (A minor effect on pHcyt corresponds to a change of < 0.15 pH unit)
3,FC(F)(F)c1cccc(Nc2nc3ccccc3nc2Nc2cccc(C(F)(F)F)c2)c1 [MMV665794],minor (A minor effect on pHcyt corresponds to a change of < 0.15 pH unit)
4,O=C(Cc1ccccc1)NC(c1ccc(Cl)cc1)c1c(O)ccc2ccccc12 (stereo not drawn) [MMV665972],minor (A minor effect on pHcyt corresponds to a change of < 0.15 pH unit)
